{"source": "patent US20260294964A1", "about": "“PHARMACEUTICALS CONTAINING CHELATORS WITH STRONG ZN IONS-HOLDING FEATURE FOR THE TREATMENT OF SYMPTOMS AND DISEASES CAUSED BY MICROORGANISMS/DISEASES CAUSED BY TOXINS OR NEUROTOXINS/CANCER/SEVERAL SYNDROMES” (priority 2023, published 2026)", "tested_on": "small animals contaminated with toxins/neurotoxins", "details": "mouse, in vivo"}
{"substance": "triethylenetetramine diethylenetriaminepentaacetate", "values": [{"measurement": "multiple of minimum lethal toxin dose at which treated animals did not die", "result": "many times to dozens of times"}]}
